Literature values in patent US20040234600A1, “Hydromorphone therapy” (priority 1994, published 2004).

For `CN1CC[C@]23c4c5ccc(O)c4OC2C(=O)CC[C@H]3[C@H]1C5` (some centres unmarked) [hydromorphone, 4,5-epoxy-3-hydroxy-17-methylmorphinan-6-one], the “onset of action, analgesia occurring” value (orally administered) is listed as “thirty” and the “analgesic action apparent (onset)” value (parenterally administered) is listed as “fifteen”.
